# Ab-14 heavy chain CDR variants: yeast mating affinities

Antigen: PDVDLGDISGINAS, a 14-residue peptide of the SARS-CoV-2 spike HR2 region.

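The starting antibody came from a phage panning campaign against this peptide. This is the validation round: designs drawn from the data on random variants, tested in the same kind of assay. Group labels follow the data file (Ctrl: baseline library sampled from a position-specific scoring matrix, with some repeated check sequences; Rand: our label for a block that the file lists under HC and that is probably the random mutants of the ten best first-round binders; En: ensemble of fine-tuned language models; GP: Gaussian process model; GPLM: also part of the Gaussian process libraries; HC: hill climbing; Gen: genetic algorithm; Gibbs: Gibbs sampling; a sequence that several methods proposed may carry one label only). In AlphaSeq, yeast of one mating type display the scFv and yeast of the other type display the target. Pairs that bind mate more often; barcode pairs of the diploids are counted by sequencing. A regression on co-assayed BCL2-family reference pairs converts the normalised counts of each replicate to an apparent Kd. Each pool was mated in six replicate cultures.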

Parent: Ab-14, a human scFv built as VH, a 15-residue (Gly4Ser)3 linker, VL. Only the CDRs of the heavy chain vary.
VH: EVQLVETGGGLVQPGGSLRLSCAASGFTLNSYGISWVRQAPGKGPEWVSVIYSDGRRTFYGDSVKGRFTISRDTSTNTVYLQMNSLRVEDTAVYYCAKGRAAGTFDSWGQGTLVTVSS
VL: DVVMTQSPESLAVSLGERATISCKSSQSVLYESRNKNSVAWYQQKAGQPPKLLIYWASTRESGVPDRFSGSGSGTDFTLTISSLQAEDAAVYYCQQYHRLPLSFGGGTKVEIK

Each variant is given by its three heavy chain CDRs, as the data file delimits them; those of the parent are GFTLNSYGIS, VIYSDGRRTFYGDSVK, GRAAGTFDS. The read-out is the apparent dissociation constant on a log10 scale (nM): the lower, the stronger. A pair that was not seen in that replicate is written "nd"; this usually means weak binding, but a binder can also be missed. The authors averaged sequences with at least three values out of six and counted those with two or fewer as poor binders.

| CDR-H1 | CDR-H2 | CDR-H3 | group | log10 Kd (nM) by replicate | empty controls |
|---|---|---|---|---|---|
| GFALNEYGIS | VIYSDGRRTFYADSVK | GRTAGTFDS | GPLM_Gen | -0.04 / 0.20 / 0.06 / 0.11 / 0.39 / 0.32 | 0 of 18 |
| GFDLNEYGIS | VIYADGRRTQYIDSVK | GNVAGTFDF | En_HC | -0.39 / -0.37 / -0.20 / -0.63 / -0.37 / -0.45 | 0 of 18 |
| GFELNSYGIS | VIYADGRRTFYGDSVK | GRAAGTFDI | GP_Gen | 0.35 / 0.28 / -0.12 / 0.06 / 0.14 / 0.08 | 0 of 18 |
| GFDLNSYGIS | VIYSDGRRTFYGDSVK | GRIAGSFNS | GP_HC | nd / nd / 2.58 / nd / 2.72 / nd | 1 of 18 (1.81) |
| GFDLEDYGIS | VIYADGMRTAYTDSVK | GENAGTFDV | En_Gen | 0.35 / 0.25 / -0.06 / -0.32 / -0.09 / 0.23 | 0 of 18 |
| GFDLNSYGIS | VIYSDGRRTFYSDSVK | GRAAGHFDS | GP_HC | 0.44 / 0.99 / 1.38 / 1.22 / 0.54 / 1.28 | 0 of 18 |
| GFDLNEYGIS | VIYADGRRTFYADSVK | GNVAGTFTS | En_HC | 0.22 / 0.37 / 0.26 / 0.19 / 0.11 / -0.06 | 0 of 18 |
| GFDLQELGIS | VIYADGTRQAYSEKVK | GQLAGYLVD | En_Gibbs | nd / nd / nd / nd / nd / nd | 1 of 18 (1.84) |
| GFTLNSYGIS | VIYSDGRRTYYGDSVK | GQNAGTFDS | Ctrl | nd / 0.29 / nd / 1.10 / 0.19 / nd | 0 of 18 |
| KFSLNSYGIS | VIYSDGRRTFYGDSVK | GEAAGTFDS | GPLM_Gen | 0.56 / 0.75 / 0.34 / 0.34 / 1.18 / 0.83 | 0 of 18 |
| GFDLNEYGIS | VIYADGRRTFYDDSVK | GQIAGTFDL | En_HC | -0.24 / -0.48 / -0.74 / -0.99 / -0.80 / -0.75 | 0 of 18 |
| GFTLNDYGIS | VIYSDGRRTFYGDSVK | GRAAGTFRS | GPLM_HC | nd / nd / nd / nd / nd / nd | 0 of 18 |
| GFDLNEYGIS | VIYADGRRTAYADSVK | GEVAGTFDI | En_Gen | -0.45 / -0.58 / -0.48 / -0.72 / -0.95 / -0.40 | 1 of 18 (1.56) |
| GFDLMEYGIS | VIYADGKRTGYTDKVK | GSFGDTGKT | En_Gibbs | nd / nd / nd / nd / nd / nd | 2 of 18 (1.99) |
| GFDLNEYGIS | VIYADGMRTAYIDSVK | GETAGTFDQ | En_Gen | -0.31 / -0.74 / 0.22 / -0.02 / -0.06 / -0.31 | 0 of 18 |
| GFTLESYGIS | VIYSDGRRTFYGDSVK | GRAAGTFLQ | GP_HC | nd / nd / 1.88 / 2.57 / 1.69 / 2.53 | 0 of 18 |
| KFDLNSYGIS | VIYSDGKRTFYADSVK | GRNAGTFDS | GP_Gibbs | 0.22 / -0.08 / 0.62 / -0.20 / -0.21 / 0.57 | 1 of 18 (1.72) |
| GFSINSYGIS | VIYSDGRRTFYGDSVK | GFNAGAFDS | Ctrl | 1.32 / 1.00 / 0.75 / 0.60 / 0.95 / 1.00 | 0 of 18 |
| GFDLMEYGIS | VIYADGVRTAYLDQVK | GESGGAYYT | En_Gibbs | nd / nd / nd / nd / nd / nd | 0 of 18 |
| GNTLNSYGIS | VIYSDGRRTFYGDSVK | GRIAGTFDS | Ctrl | nd / 1.68 / 2.22 / nd / 0.59 / 2.82 | 0 of 18 |
| GFTLNMYGIS | VIYSDGRRTFYLDQVK | GRAAGTFDS | Ctrl | nd / nd / nd / nd / nd / nd | 0 of 18 |
| GFDLNEYGIS | VIYADGMRTQYADSVK | GNVAGTFDT | En_Gen | 0.96 / -0.11 / 0.14 / 0.29 / -0.48 / 0.06 | 0 of 18 |
| GEALNSYGIS | VIYSDGRRTFYGPSVK | QRAAGTFDS | Ctrl | nd / nd / nd / nd / nd / nd | 0 of 18 |
| GFDLDEYGIS | VIYADGKRTAYADDVK | GEVAGTFDI | En_Gen | -0.20 / -0.14 / -0.02 / -0.47 / -0.28 / 0.03 | 0 of 18 |
| GFTLNSYGIS | VIYSDGRRTAYGDSVK | GRAKGTFDS | Ctrl | nd / nd / nd / nd / nd / nd | 0 of 18 |
| GFDIEDYGIS | VIYADGKRSSYSNSFK | GLMSGNMMV | En_Gibbs | nd / nd / nd / nd / nd / nd | 0 of 18 |
| GFQLNEYGIS | VIYSDGRRTFYTDSVK | GRTAGTFDS | GP_HC | 1.09 / 0.53 / 1.00 / 1.20 / 0.68 / 0.43 | 0 of 18 |
| GCTLNSYGIS | VIYSDGQRTFYGDSVK | GRAAGTFDS | Ctrl | nd / nd / nd / nd / nd / nd | 0 of 18 |
| GFTLNDYGIS | VIYSDGRRTFYQDSVK | GRVAGTFWS | GP_HC | nd / nd / nd / 0.83 / nd / nd | 0 of 18 |
| GFDLNMYGIS | VIYSDGRRTSYHDSVK | GRAAGTFPM | Ctrl | nd / nd / nd / nd / nd / nd | 0 of 18 |
| GFDLNEYGIS | VIYADGMRTAYSESVK | GENAGTFDV | En_Gen | -0.32 / -0.44 / -0.45 / -0.48 / -0.31 / 0.31 | 0 of 18 |
| GFDLDEYGIS | VIYADGMRTAYSDSVK | GSNAGTFDL | En_Gen | 0.04 / -0.63 / -0.22 / -0.21 / -0.38 / -0.38 | 0 of 18 |
| GFDLNEYGIS | VIYADGRRTFYADSVK | GEAAGTFDN | En_HC | -0.31 / -0.15 / -0.01 / -0.01 / -0.33 / 0.16 | 0 of 18 |
| GFTLNSYGIS | VIYSDGRRTFYIDSVK | GRAAGTFDS | Ctrl+GPLM_Gen | nd / nd / nd / nd / nd / nd; nd / nd / nd / nd / nd / nd | 0 of 36 |
| GFSLNDYGIS | VIYSDGRRTEYGDSVK | GRAAGTFDS | GP_HC | 0.67 / 1.11 / 0.45 / 0.50 / 0.90 / 1.19 | 1 of 18 (2.06) |
| GFTLNQYGIS | VIYSDGRRTFYGDSVK | GRASGTFDS | Ctrl | 1.77 / nd / nd / 1.62 / nd / nd | 0 of 18 |
| GFDLNEYGIS | VIYADGKRTAYVDSVK | GENAGTFDQ | En_Gen | -0.14 / -0.25 / -0.53 / -0.44 / -0.35 / -0.12 | 0 of 18 |
| GFTLESYGIS | VIYSDGRRTFYDDDVK | GKAAGTFDS | GP_Gibbs | nd / 1.87 / nd / 2.38 / nd / 1.77 | 0 of 18 |
| GFDLNEYGIS | VIYADGRRTAYKDSVK | GEAAGTFDV | En_HC | -0.08 / -0.24 / -0.16 / -0.31 / -0.25 / -0.39 | 1 of 18 (2.17) |
| GETLNSYGIS | VIYSDGLRTAYGDSVK | GRWGGFFDS | Ctrl | nd / nd / nd / nd / nd / nd | 0 of 18 |
| GFDLDEYGIS | VIYADGVRTAYTDSVK | GNVAGTFDT | En_Gen | -0.80 / -0.77 / -0.91 / -0.39 / -0.92 / -0.38 | 0 of 18 |
| GFTLNEYGIS | VIYSDGRRTFYTPSVK | GRFAGTFFS | Rand | nd / nd / nd / nd / nd / nd | 0 of 18 |
| GFDLNEYGIS | VIYADGMRQAYADSVK | GENAGTFDL | En_Gen | 0.39 / -0.31 / -0.31 / -0.39 / -0.57 / -0.27 | 0 of 18 |
| GFNLDEYGIS | VIYADGTRRYYADSFK | GDEVVVNSI | En_Gibbs | nd / nd / nd / nd / nd / nd | 0 of 18 |
| GFDLQEYGIS | VIFADGLRSAYSDKVK | GQLMGYFSV | En_Gibbs | nd / nd / nd / nd / nd / nd | 0 of 18 |
| GFDLNEYGIS | VIYADGRRTFYADSVK | GTNGGTFDI | En_HC | 0.36 / 0.01 / 0.38 / 0.28 / 0.22 / 0.47 | 0 of 18 |

The last 3 entries again:

| CDR-H1 | CDR-H2 | CDR-H3 | group | log10 Kd (nM) by replicate | empty controls |
|---|---|---|---|---|---|
| GFNLDEYGIS | VIYADGTRRYYADSFK | GDEVVVNSI | En_Gibbs | nd / nd / nd / nd / nd / nd | 0 of 18 |
| GFDLQEYGIS | VIFADGLRSAYSDKVK | GQLMGYFSV | En_Gibbs | nd / nd / nd / nd / nd / nd | 0 of 18 |
| GFDLNEYGIS | VIYADGRRTFYADSVK | GTNGGTFDI | En_HC | 0.36 / 0.01 / 0.38 / 0.28 / 0.22 / 0.47 | 0 of 18 |

A sequence measured in both rounds can read differently, since the two assays cover different ranges. Where one sequence has several entries in the source, the replicates are listed entry by entry, parted by semicolons. Nonspecific signal, from three strains lacking the peptide, appeared in 1% of pairings of all heavy chain designs, centred on 2.08 (5% of these signals below 0.84); values are not corrected for it. The control count says in how many pairings with the empty strains this scFv gave a signal, with their mean in brackets.

Source: Li et al. 2023 (doi:10.1038/s41467-023-39022-2), MIT Lincoln Laboratory and A-Alpha Bio; data file from the FLAb repository.